Source: ChEMBL document CHEMBL1140531, “New functional assay of P-glycoprotein activity using Hoechst 33342” (Bioorg Med Chem, 2007)

Protein sequences, listed by entry. Tags and fused reporters are not part of them.
UniProt P08183, whole entry: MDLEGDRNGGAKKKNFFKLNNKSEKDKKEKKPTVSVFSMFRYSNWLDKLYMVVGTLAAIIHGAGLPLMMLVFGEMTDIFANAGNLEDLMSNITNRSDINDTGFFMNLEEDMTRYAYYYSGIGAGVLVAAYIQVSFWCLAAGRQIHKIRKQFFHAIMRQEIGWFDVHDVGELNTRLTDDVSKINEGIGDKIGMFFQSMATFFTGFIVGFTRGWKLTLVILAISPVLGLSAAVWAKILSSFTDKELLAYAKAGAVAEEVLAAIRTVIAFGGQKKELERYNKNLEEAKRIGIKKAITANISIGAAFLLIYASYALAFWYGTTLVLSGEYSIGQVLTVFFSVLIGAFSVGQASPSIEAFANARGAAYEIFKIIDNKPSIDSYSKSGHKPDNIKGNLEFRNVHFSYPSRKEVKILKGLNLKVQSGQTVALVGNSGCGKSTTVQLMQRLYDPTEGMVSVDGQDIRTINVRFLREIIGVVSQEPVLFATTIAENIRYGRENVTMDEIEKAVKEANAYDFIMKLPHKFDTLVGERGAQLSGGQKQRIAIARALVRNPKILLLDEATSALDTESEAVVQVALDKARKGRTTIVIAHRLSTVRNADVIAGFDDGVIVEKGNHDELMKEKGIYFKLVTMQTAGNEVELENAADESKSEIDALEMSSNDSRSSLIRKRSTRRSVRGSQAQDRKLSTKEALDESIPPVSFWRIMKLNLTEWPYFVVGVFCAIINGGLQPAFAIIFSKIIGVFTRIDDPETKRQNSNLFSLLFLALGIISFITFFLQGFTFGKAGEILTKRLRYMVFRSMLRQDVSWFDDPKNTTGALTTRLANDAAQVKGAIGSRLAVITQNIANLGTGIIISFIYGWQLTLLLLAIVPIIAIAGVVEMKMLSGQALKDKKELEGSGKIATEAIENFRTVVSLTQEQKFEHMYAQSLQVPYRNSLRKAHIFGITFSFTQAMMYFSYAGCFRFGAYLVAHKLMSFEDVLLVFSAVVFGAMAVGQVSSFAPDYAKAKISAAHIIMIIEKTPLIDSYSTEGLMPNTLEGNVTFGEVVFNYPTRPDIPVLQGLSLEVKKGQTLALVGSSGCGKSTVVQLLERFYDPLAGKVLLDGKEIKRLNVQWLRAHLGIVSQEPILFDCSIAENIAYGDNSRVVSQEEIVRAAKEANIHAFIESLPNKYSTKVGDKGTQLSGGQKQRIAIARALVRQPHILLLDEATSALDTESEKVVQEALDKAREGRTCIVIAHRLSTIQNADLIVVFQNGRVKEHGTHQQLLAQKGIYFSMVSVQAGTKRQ

Legend:
[1] = target: T1, ATP-dependent translocase ABCB1 (Homo sapiens, UniProt P08183); test: Inhibition of P-glycoprotein expressed in A2780/ADR cells by calcein AM assay; format: cell-based
[2] = target: T1, ATP-dependent translocase ABCB1; test: Inhibition of P-glycoprotein by Hoechst assay

SMILES	IC50 [1] [µM]	IC50 [2] [µM]
COC(=O)C1=C(C)NC(C)=C(C(=O)OCCN(C)Cc2ccccc2)C1c1cccc([N+](=O)[O-])c1 (centres undefined) [NICARDIPINE]	4.79	5.13
CC(=O)[C@H]1CC[C@H]2[C@@H]3CCC4=CC(=O)CC[C@]4(C)[C@H]3CC[C@]12C [PROGESTERONE]	47.9	49
